# Assays:
# Homo sapiens [1] = species on record: Homo sapiens; experiment: Selectivity ratio of IC50 for human HDAC11 to IC50 for human HDAC6
# Homo sapiens [2] = species on record: Homo sapiens; experiment: Selectivity ratio of IC50 for human HDAC4 to IC50 for human HDAC6
# Homo sapiens [3] = species on record: Homo sapiens; experiment: Selectivity ratio of IC50 for human HDAC2 to IC50 for human HDAC6
# Homo sapiens [4] = species on record: Homo sapiens; experiment: Selectivity ratio of IC50 for human HDAC8 to IC50 for human HDAC6
# Homo sapiens [5] = species on record: Homo sapiens; experiment: Selectivity ratio of IC50 for human HDAC1 to IC50 for human HDAC6
SMILES,Ratio IC50 (Homo sapiens [1]),Ratio IC50 (Homo sapiens [2]),Ratio IC50 (Homo sapiens [3]),Ratio IC50 (Homo sapiens [4]),Ratio IC50 (Homo sapiens [5])
CN(C)c1ccc(C(=O)N(CC(=O)NC2CCCCC2)Cc2ccc(C(=O)NO)cc2)cc1,40,> 6290,126,–,–
O=C(NO)c1ccc(Cn2c(=O)c(F)cn(C3CCCO3)c2=O)cc1 (stereo unspecified),–,–,443,12,137
